Earlier results, collected in patent publication US20030176652A1, “Human and mouse beta-defensins, antimicrobial peptides” (priority 2001, published 2003).
Like-named read-outs stand apart in the source and are kept apart here.

What was measured:
Bordetella parapertussis = system: Bordetella parapertussis; design: unit not given beside the values
[1] = system: Staphylococcus coagulase f; design: MIC90: unit not given beside the values
[2] = Staphylococcus coagulase f (non β-lactamase producer)
[3] = Staphylococcus coagulase f (β-lactamase producer)

In the case of `CC[C@H]1OC(=O)[C@H](C)[C@@H](O[C@H]2C[C@@](C)(OC)[C@@H](O)[C@H](C)O2)[C@H](C)[C@@H](O[C@@H]2O[C@H](C)C[C@H](N(C)C)[C@H]2O)[C@](C)(O)C[C@@H](C)C(=O)[C@H](C)[C@@H](O)[C@]1(C)O` [ERYTHROMYCIN, erythromycin], the MIC90 (Bordetella parapertussis) is given as 0.25, the MIC90 [1, 2] is given as 0.25 and the Range [1, 2] is given as 0.03-8. The MIC90 [1, 3] was 4 and the Range [1, 3] was 0.06-16.
